# Yeast mating assay B: variants of the scFv Ab-14

Values reported by Li et al. 2023, doi:10.1038/s41467-023-39022-2 (FLAb copy).

Antigen: PDVDLGDISGINAS, a 14-residue peptide of the SARS-CoV-2 spike HR2 region.

Parent: Ab-14, a human scFv built as VH, a (GGGGS)3 linker, VL. Only the CDRs of the heavy chain vary.
VH: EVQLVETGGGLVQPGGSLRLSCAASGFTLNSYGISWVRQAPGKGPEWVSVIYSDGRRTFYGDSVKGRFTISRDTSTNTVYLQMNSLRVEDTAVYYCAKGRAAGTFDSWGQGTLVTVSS
VL: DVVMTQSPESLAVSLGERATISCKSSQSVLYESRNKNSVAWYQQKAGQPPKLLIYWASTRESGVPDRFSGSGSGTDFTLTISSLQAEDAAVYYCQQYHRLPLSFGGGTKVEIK

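These sequences belong to a second round, designed from the earlier measurements on random variants of the parent. Group labels follow the data file (Ctrl: baseline library sampled from a position-specific scoring matrix, with some repeated check sequences; GPLM: also part of the Gaussian process libraries; HC: hill climbing; Gen: genetic algorithm; a sequence that several methods proposed may carry one label only). The assay is AlphaSeq: two haploid yeast populations carry antibody and antigen on their surface. Mating (16 h, 30 °C) was followed by selection of diploids and sequencing of their barcodes. Scores were corrected for input abundance and mapped to Kd with protein pairs of known affinity run in the same pool. Mating was done six times.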

Positions count from residue 1 of the parent VH; F27N puts N in place of F.
The read-out is the apparent dissociation constant on a log10 scale (nM): the lower, the stronger.
A pair that was not seen in that replicate is written "n.d."; this usually means weak binding, but a binder can also be missed.
Background: pairings of all heavy chain designs with three empty control strains gave a value in 1% of cases (median 2.08, 5th percentile 0.84). Values in that range, when seen in few replicates, are hard to tell from nonspecific mating. Also given: how often the same scFv was detected with the empty control strains, with their mean in brackets.
The parent sequence was in this pool as ten entries: three were never detected, three once, and four in most replicates, with averages from 0.34 to 2.37.
A sequence measured in both rounds can read differently, since the two assays cover different ranges.
The authors' rule: three or more of the six replicates give a measured affinity, fewer mean a poor binder.
Some sequences occur more than once in the pool; their replicates are listed entry by entry, parted by semicolons.

changes	group	log10 Kd (nM) by replicate	empty controls
F27N/T28S/G61A	Ctrl	n.d. 2.02 2.50 n.d. n.d. 2.70	1/18 (2.26)
S53A/D62N	Ctrl	0.52 2.39 0.49 0.76 0.40 0.61	0/18
R56Y/F59E/G99Q/A102I/F105G	Ctrl	n.d. n.d. n.d. n.d. n.d. n.d.	0/18
A101M/D106K/S107I	Ctrl	n.d. n.d. n.d. n.d. n.d. 0.62	0/18
I34H/G61Q/G99R	Ctrl	n.d. n.d. n.d. n.d. n.d. n.d.	0/18
S31E/R100N/T104F	Ctrl	n.d. n.d. n.d. n.d. n.d. n.d.	0/18
S53A/G61A/F105K/S107L	Ctrl	n.d. n.d. n.d. n.d. n.d. n.d.	0/18
T28W/A102T	Ctrl	n.d. n.d. n.d. n.d. n.d. n.d.	0/18
S31D/T58V/Y60I/F105Y	Ctrl	n.d. n.d. n.d. n.d. n.d. n.d.	1/18 (2.31)
T28M/R100Y/A101W/A102C/T104V	Ctrl	n.d. n.d. n.d. n.d. n.d. n.d.	0/18
T28D/S53A/G61S/G103F	Ctrl	0.24 0.53 0.27 0.37 0.36 0.43	1/18 (1.88)
T28D/S35Y/A101E/T104A/D106C	Ctrl	n.d. n.d. n.d. n.d. n.d. n.d.	0/18
N30E/S31D/G61T/G99R	Ctrl	n.d. n.d. n.d. n.d. n.d. n.d.	0/18
R56L/D106I	Ctrl	n.d. n.d. n.d. n.d. n.d. n.d.	0/18
R100D/A101R	Ctrl	1.85 1.50 1.76 1.55 1.50 1.44	1/18 (3.44)
F59Y/S107T	Ctrl	n.d. 1.78 0.66 1.33 1.81 n.d.	0/18
T28C/S31E/G61S/V64T/R100S/D106T/S107V	Ctrl	n.d. n.d. n.d. n.d. n.d. n.d.	0/18
S53R/F59A	Ctrl	n.d. n.d. n.d. n.d. n.d. n.d.	0/18
G26D/S63A/R100E/A102V/T104M	Ctrl	n.d. n.d. n.d. n.d. n.d. n.d.	0/18
R56L/R100K	Ctrl	n.d. n.d. 0.93 n.d. n.d. n.d.	0/18
F27T/N30E/T58V/G61N	Ctrl	n.d. 1.93 n.d. n.d. n.d. n.d.	0/18
T28D/R100K	Ctrl+GPLM_Gen	0.19 0.59 0.41 0.28 0.18 0.13; 0.78 -0.06 0.21 0.00 0.09 0.57	0/36
G61A/K65R/T104L	Ctrl	n.d. n.d. n.d. n.d. n.d. n.d.	0/18
S31D/G61Q/S63K/V64Y	Ctrl	n.d. n.d. n.d. n.d. n.d. n.d.	0/18
T28E/I34C/A101L/D106V	Ctrl	2.52 n.d. n.d. n.d. n.d. n.d.	0/18
L29R/G61E/R100Q	Ctrl	n.d. n.d. n.d. n.d. n.d. n.d.	0/18
N30E/G61N	Ctrl	1.94 1.02 2.11 1.58 1.45 1.69	1/18 (2.78)
A101Q/F105P	Ctrl	n.d. n.d. n.d. n.d. n.d. n.d.	0/18
S53A/R56K/F59T/D106V	Ctrl	n.d. n.d. n.d. n.d. n.d. n.d.	0/18
F59S	Ctrl	n.d. 1.01 n.d. n.d. n.d. 1.41	0/18
D106T	Ctrl	n.d. 1.45 n.d. 1.62 n.d. 2.99	1/18 (3.44)
S35Q/G61A/A102I	Ctrl	n.d. n.d. n.d. n.d. n.d. n.d.	0/18
R56E/G61D/S63D	Ctrl	n.d. n.d. 1.68 n.d. 1.57 n.d.	0/18
T28K/R56K/S107Q	Ctrl	n.d. 1.36 n.d. n.d. n.d. n.d.	0/18
N30E/T58V	Ctrl	n.d. 1.61 n.d. n.d. n.d. 2.18	0/18
F27T/T28D	Ctrl	n.d. n.d. n.d. n.d. n.d. n.d.	0/18
R56M/G61S	Ctrl+GPLM_HC	1.09 0.48 0.29 1.86 0.45 0.83; 0.51 0.76 1.18 0.95 0.71 0.90	0/36
S31H/G61K	Ctrl	2.23 1.49 n.d. n.d. n.d. n.d.	0/18
F59M/G61A/S63K	Ctrl	n.d. 1.83 n.d. 3.29 2.52 2.55	1/18 (2.15)
F27E/R56Q/A102K/G103D/T104L	Ctrl	n.d. n.d. n.d. n.d. n.d. n.d.	0/18
G26K/S31M/A101E	Ctrl	3.08 1.72 1.50 1.14 1.72 2.62	0/18
S31E/S63Q/T104R/D106V	Ctrl	2.05 1.63 0.76 1.20 1.11 0.81	0/18
F59A/G103V/T104S	Ctrl	n.d. n.d. n.d. n.d. n.d. n.d.	0/18
N30D/G61A	Ctrl+GPLM_Gen	0.09 0.35 0.03 0.16 0.32 0.47; -0.16 n.d. -0.57 n.d. 1.75 0.54	0/36
F27H/T28N/K65R/D106P	Ctrl	n.d. n.d. n.d. n.d. n.d. n.d.	0/18
R56C/D106F	Ctrl	n.d. n.d. n.d. n.d. n.d. n.d.	0/18
S31Q/G61L/K65A	Ctrl	n.d. 2.29 n.d. 1.53 1.48 1.85	0/18

Top 4 of the variants detected in all replicates, tightest first:

changes	group	log10 Kd (nM) by replicate	empty controls
T28D/R100K	Ctrl+GPLM_Gen	0.19 0.59 0.41 0.28 0.18 0.13; 0.78 -0.06 0.21 0.00 0.09 0.57	0/36
T28D/S53A/G61S/G103F	Ctrl	0.24 0.53 0.27 0.37 0.36 0.43	1/18 (1.88)
R56M/G61S	Ctrl+GPLM_HC	1.09 0.48 0.29 1.86 0.45 0.83; 0.51 0.76 1.18 0.95 0.71 0.90	0/36
S53A/D62N	Ctrl	0.52 2.39 0.49 0.76 0.40 0.61	0/18